Results taken from patent US20100120678.

Target: T1, substrate peptide derived from the region spanning Y1173 in EGFR
T1 chain: TAENAEYLRVAPQ

B1: His-tagged wildtype EGFR kinase domain (protein)
chain: MSYHHHHHHDYDIPTTENLYFQGAMGEAPNQALLRILKETEFKKIKVLGSGAFGTVYKGLWIPEGEKVKIPVAIKELREATSPKANKEILDEAYVMASVDNPHVCRLLGICLTSTVQLITQLMPFGCLLDYVREHKDNIGSQYLLNWCVQIAKGMNYLEDRRLVHRDLAARNVLVKTPQHVKITDFGLAKLLGAEEKEYHAEGGKVPIKWMALESILHRIYTHQSDVWSYGVTVWELMTFGSKPYDGIPASEISSILEKGERLPQPPICTIDVYMIMVKCWMIDADSRPKFRELIIEFSKMARDPQRYLVIQGDERMHLPSPTDSNFYRALMDEEDMDDVVDADEYLIPQQG
KM of the kinase for the substrate peptide (continuous enzyme-coupled kinase assay): the value of KM for the wildtype kinase domain and this substrate peptide was greater than 4 mM
